Data from publication PMC9101684, “Hempseed (Cannabis sativa) Peptide H3 (IGFLIIWV) Exerts Cholesterol-Lowering Effects in Human Hepatic Cell Line” (Nutrients, 2022).

Molecular target: T1, HMGCoAR (catalytic domain) (Homo sapiens, UniProt P04035)
T1 construct: HMGCoAR (catalytic domain) (2 µL); purchased Sigma-Aldrich
T1 sequence (P04035 426-888 limits assumed): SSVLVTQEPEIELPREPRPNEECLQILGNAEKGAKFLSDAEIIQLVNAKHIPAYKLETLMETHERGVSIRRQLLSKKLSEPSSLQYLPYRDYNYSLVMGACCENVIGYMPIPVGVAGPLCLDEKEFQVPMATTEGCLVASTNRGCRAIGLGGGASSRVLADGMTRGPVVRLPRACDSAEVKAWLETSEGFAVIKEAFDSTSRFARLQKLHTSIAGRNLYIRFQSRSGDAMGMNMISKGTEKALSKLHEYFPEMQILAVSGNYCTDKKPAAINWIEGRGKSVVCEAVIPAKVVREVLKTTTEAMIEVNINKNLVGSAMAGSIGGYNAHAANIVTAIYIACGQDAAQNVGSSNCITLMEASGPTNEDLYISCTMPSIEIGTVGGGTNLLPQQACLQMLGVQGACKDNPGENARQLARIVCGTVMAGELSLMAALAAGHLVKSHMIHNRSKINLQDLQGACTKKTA
Test: HMGCoAR activity assay (NADPH oxidation, absorbance 340 nm)
Assay type: biochemical
Settings: purified catalytic domain of HMGCoAR, positive control, 37 °C, three independent experiments in triplicate

CC[C@H](C)C(=O)O[C@H]1C[C@H](O)C=C2C=C[C@H](C)[C@H](CC[C@@H](O)C[C@@H](O)CC(=O)O)[C@H]21 [pravastatin]
IC50: 550 nM
